For 2 molecules, IC50 results are on record in patent publication US5200320A, “Method for identifying useful polypeptide vaccines” (National Jewish Center for Immunology and Respiratory …, priority 1987, dated 1993).

For this experiment, the target named is T1, IA^d (Mus musculus, UniProt P01921+P04228).
T1 sequence (P04228 24-256): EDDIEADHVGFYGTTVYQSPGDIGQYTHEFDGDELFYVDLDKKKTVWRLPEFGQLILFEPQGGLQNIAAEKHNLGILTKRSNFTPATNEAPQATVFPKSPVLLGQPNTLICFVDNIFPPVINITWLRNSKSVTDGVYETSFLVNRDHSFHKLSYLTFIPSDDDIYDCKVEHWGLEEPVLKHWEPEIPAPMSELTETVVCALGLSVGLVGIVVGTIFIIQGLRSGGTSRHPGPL
T1 sequence (P01921 28-265): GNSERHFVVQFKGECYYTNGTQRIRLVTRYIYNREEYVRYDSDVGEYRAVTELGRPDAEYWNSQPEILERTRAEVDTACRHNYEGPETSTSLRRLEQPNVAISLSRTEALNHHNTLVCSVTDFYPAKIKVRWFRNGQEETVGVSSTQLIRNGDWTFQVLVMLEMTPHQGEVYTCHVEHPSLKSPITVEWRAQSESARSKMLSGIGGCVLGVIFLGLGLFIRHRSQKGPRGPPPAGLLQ
Briefly: Inhibition of binding of 125I-radiolabelled Ova 323-339 to purified IA^d (gel filtration competition assay). The note with it: Table 7, good binders; concentration of the indicated polypeptide. The text has this:
The following examples will illustrate the method of the present invention. First, a critical binding segment of a first polypeptide that binds to a first type of MHC, was ascertained. […] This was accomplished by the method described in Sette, et al, Nature, Vol. […] No. 6129, pp. 395-399, Jul. 30, 1987, the entirety of which is incorporated herein by reference. […] For convenience, Table I of that paper illustrating the foregoing procedure, is attached as Table 2.
The effect which the substitutions indicated by an "X" in Table III, had on the binding strength of the critical binding segment listed at the top of attached Table 4, was quantitatively calculated, and a numerical designation assigned to the substituting amino acid based upon the degree of that effect. […] The quantitative evaluations of the binding strength were made using a competition assay as described in Sette, et al, supra, and the numerals assigned according to the decrease in the binding activity as follows: […]
In particular, as pointed out in Sette et al., supra, T-cell recognition is much less permissive than MHC recognition. […] Binding to a class II MHC type IA^d and IE^d (d strain of mouse) was evaluated using the same assay technique as used to evaluate the binding for the polypeptides in Tables 6 and 7 above.
For orientation: SEC sorts molecules by how far they enter the pores of the column.

Structures are written as SMILES.

As a reminder, the IC50 is the concentration that gives 50% inhibition. A higher IC50 goes with weaker potency. Molecule `CC[C@H](C)[C@H](NC(=O)[C@H](C)NC(=O)CNC(=O)[C@H](CC(C)C)NC(=O)[C@H](C)NC(=O)[C@@H](NC(=O)[C@H](CC(C)C)NC(=O)[C@@H](NC(=O)[C@@H](NC(=O)[C@@H](NC(=O)CNC(=O)[C@H](Cc1c[nH]cn1)NC(=O)[C@@H](N)CCCCN)C(C)C)[C@@H](C)O)C(C)C)[C@@H](C)O)C(=O)N[C@@H](CC(C)C)C(=O)N[C@@H](CCCCN)C(=O)N[C@@H](CCCCN)C(=O)O` [Myo 63-78] had an IC50 of 9 µM.
For the molecule `CC[C@H](C)[C@H](NC(=O)CNC(=O)[C@H](Cc1ccc(O)cc1)NC(=O)[C@H](CO)NC(=O)CNC(=O)[C@@H](NC(=O)[C@H](Cc1c[nH]cn1)NC(=O)[C@H](CC(=O)O)NC(=O)[C@H](C)N)C(C)C)C(=O)N[C@H](C(=O)N[C@H](C(=O)N[C@@H](Cc1ccc(O)cc1)C(=O)N[C@@H](CCC(N)=O)C(=O)N[C@@H](CO)C(=O)N1CCC[C@H]1C(=O)O)C(C)C)[C@@H](C)O` [Ed 122 alpha 6-20], the IC50 is 3 µM.
